Test results taken from patent publication US6013659A, “Methods of reducing tumor colony number using novel benzothiazole compounds” (University of Pittsburgh, priority 1998, dated 2000).

Assays:
cancer cells = conditions: literature (Goldfarb et al.); cited from earlier work
tumors = test: Infiltration of tumors/metastases by A-NK cells and side effects (choice of effective amount); type: in vivo, mouse
Protocol: The effective amount of A-NK cells is 3-4×10^7 cells per 20 g mouse. […] The A-NK cells are administered intravenously to the mice.
IL-2 (obtained from Chiron corporation, Emeryville, Calif.) is administered at 120,000 IU i.v. per 20 g mouse initially and 120,000 IU i.p after 8 h. […] In addition the increase in infiltration was not proportional to the increased amount of IL-2 administered.

Question: Which “direct effect on cancer cells” value (cancer cells) does the source give for interleukin-2 [IL-2] here?
Answer: did not have a direct effect on cancer cells

Question: And the infiltration of tumors (tumors; 120,000 IU i.v. per 20 g mouse initially and 120,000 IU i.p. after 8 h)?
Answer: maximal infiltration of tumors

Question: What about the side effects (tumors; larger amounts of IL-2) of the same substance?
Answer: unwanted side effects
